Drawing on ChEMBL document CHEMBL2384946 (Bioorg Med Chem, 2013), this text covers Ratio Ki and EC50 for 6 compounds.

Sequences of proteins named here, by UniProt entry; tags and fusion partners are left off.
UniProt P14416, whole entry: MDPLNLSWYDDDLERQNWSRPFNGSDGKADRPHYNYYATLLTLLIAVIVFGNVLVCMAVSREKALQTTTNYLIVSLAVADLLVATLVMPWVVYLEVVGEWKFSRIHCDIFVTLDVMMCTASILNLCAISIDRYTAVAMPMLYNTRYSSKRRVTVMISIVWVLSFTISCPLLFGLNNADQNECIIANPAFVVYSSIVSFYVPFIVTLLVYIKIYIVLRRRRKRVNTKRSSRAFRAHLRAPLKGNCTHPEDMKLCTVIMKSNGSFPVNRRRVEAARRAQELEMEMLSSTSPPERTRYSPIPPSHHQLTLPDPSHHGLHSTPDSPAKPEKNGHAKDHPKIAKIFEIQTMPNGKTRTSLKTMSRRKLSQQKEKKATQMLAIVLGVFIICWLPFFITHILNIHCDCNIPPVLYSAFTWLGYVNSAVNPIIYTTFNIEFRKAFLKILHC

As usually defined, the EC50 is the concentration giving half of the maximal effect.

For one experiment, the species on record is Rattus norvegicus. In words: Selectivity ratio of Ki for rat cloned dopamine D2L receptor to Ki for rat cloned dopamine D3 receptor.
As to `CCCN(CCN1CCN(c2ccccc2)CC1)[C@H]1CCc2c(cccc2OS(=O)(=O)c2ccc(OC)cc2)C1`, the Ratio Ki turned out to be 28.2.

As for `CCCN(CCN1CCN(c2ccccc2)CC1)[C@H]1CCc2ccc(N)cc2C1`, the Ratio Ki amounted to 59.6.

For the compound `CCCN(CCN1CCN(c2ccccc2)CC1)[C@@H]1CCc2ccc(NS(=O)(=O)c3ccc(OC)cc3)cc2C1`, the Ratio Ki stood at 43.5.

Consider `CCCN(CCN1CCN(c2ccccc2)CC1)[C@@H]1CCc2ccc(N)cc2C1`, for which the Ratio Ki worked out at 29.8.

Consider `CCCN(CCN1CCN(c2ccccc2)CC1)C1CCc2ccc(NS(=O)(=O)c3ccc(OC)cc3)cc2C1` (racemic), for which the Ratio Ki came out at 29.2.

The next experiment has as its target D(2) dopamine receptor (Homo sapiens, UniProt P14416). In words: Agonist activity at human dopamine D2L receptor expressed in CHO cells assessed as stimulation of [35S]GTPgammaS binding after 60 mins by scintillation counting analysis. It counts as functional, cell-based. A general note: GTPγS resists hydrolysis and so accumulates on activated G proteins.
On to `CCCN(CCN1CCN(C(=O)c2cc3ccccc3[nH]2)CC1)C1CCc2nc(N)sc2C1` (stereo unspecified), for which the 50% effective concentration (EC50) is 0.114 µM.
